Values quoted from earlier work as cited in patent publication US20230382950A1, “CYCLIC APELIN RECEPTOR AGONISTS” (priority 2020, published 2023).

Conditions: cited from earlier work

Substance: Apelin [reference compound]
- half-life in the blood circulation: around one
